13 compounds from PubChem BioAssay AID828 (The Scripps Research Institute Molecular Screening Center, 2007) can be followed below.

The chains behind the UniProt entries cited, without tags or fusion partners.
UniProt O43603, whole entry: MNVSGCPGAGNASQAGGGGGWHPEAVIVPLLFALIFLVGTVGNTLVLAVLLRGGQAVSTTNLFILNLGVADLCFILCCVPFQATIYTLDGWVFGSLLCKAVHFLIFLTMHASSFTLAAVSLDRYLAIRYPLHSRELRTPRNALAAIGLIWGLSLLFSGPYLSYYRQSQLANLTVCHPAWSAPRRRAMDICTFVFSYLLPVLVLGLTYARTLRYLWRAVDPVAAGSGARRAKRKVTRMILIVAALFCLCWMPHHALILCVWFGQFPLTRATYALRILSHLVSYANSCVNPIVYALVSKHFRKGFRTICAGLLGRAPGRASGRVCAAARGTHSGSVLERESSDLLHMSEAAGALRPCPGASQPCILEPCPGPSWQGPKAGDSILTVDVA

As a reminder, the inhibition is the change of the read-out against control, counted positive when it falls.

The structures appear in SMILES notation. Only a part is listed here, and it is no random draw. The source made the active and inactive calls. Cut-off read from the data, not from the text of the source: active = inhibition above about 27%; inactive = the rest.

For the test, the target named is Galanin receptor type 2 (Homo sapiens) (UniProt O43603). In words: blockers of human galanin receptor 2 – cell-based, primary screen (AID 828).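 Note: cells stimulated with galanin 1-16 at roughly its EC80; 0% = agonist challenge control and 100% = basal control without agonist.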 The settings on record: GALR2-expressing cells, antagonist mode; at 4 µM; stronger effect = higher value.
As for `O=C(NCC1(N2CCOCC2)CCCCC1)c1cc2ccccc2o1`, the inhibition was inactive: -6.42%.

On to `O=C(OC1CN2CCC1CC2)C1c2ccccc2Oc2ccccc21` (stereo not drawn), for which the inhibition is inactive: -6.84%.

As for `COc1ccc(NC2CCN(CCc3ccccc3)CC2)c(OC)c1`, the inhibition was inactive: -4.03%. In the case of `N#CC1(Nc2ccccc2)CCN(CCc2ccccc2)CC1`, the inhibition is inactive: 6.66%.

Turning to `O=C(NCC1(N2CCOCC2)CCCCC1)c1cc(=O)[nH]c2ccccc12`, the inhibition was inactive: -2.62%.

In the case of `CN1CCN(CCOC(=O)C(O)(c2ccccc2)c2ccccc2)CC1`, the inhibition is inactive: -1%. `CN1CCC(Nc2cccc(F)c2)CC1`: the inhibition was inactive: 2.89%. With `N/C(=N\O)c1c(N)no[n+]1[O-]`, the inhibition is inactive: -5.55%. Turning to `O=C(OC1CN2CCC1CC2)C1c2ccccc2C=Cc2ccccc21` (stereo not drawn), the inhibition was inactive: -2.73%. With `c1ccc(CN2CCC(Nc3ccccc3)CC2)cc1`, the inhibition was inactive: 14.3%. With `CCN1CCC(Nc2cccc(F)c2)CC1` the figure was inactive: -2.99%; with `CCOc1ncccc1C(=O)NCC1(N2CCOCC2)CCCCC1`, inactive: 6.55%; with `CCC(CO)(C(=O)OC1CN2CCC1CC2)c1ccccc1` (stereo not drawn), inactive: -1.47%.
